In patent EP0260829A2 (priority 1986, dated 1988) one finds IC50 data, which are given here for two molecules.

This assay has as its system anti-PCP antibody from ATCC HB 9198. As to the kind of experiment: competitive inhibition enzyme immunoassay (CIEIA). Also noted: species or system rat. To be noted: read-out: Molar IC50; molar concentration of chemical that inhibits 50% of the binding of anti-PCP to the coated plate; NI = Not Inhibitory.

Some compounds may have been tested in ways that are not shown here.

In general, IC50 refers to the midpoint of a concentration-inhibition curve.

As to `Cc1cccc([N+](=O)[O-])c1[N+](=O)[O-]`, the IC50 was greater than 1000 µM.

Turning to `Cc1ccc([N+](=O)[O-])cc1[N+](=O)[O-]`, the IC50 was greater than 1000 µM.
